Assay results as given in publication PMC9706574, “A Versatile and Sustainable Multicomponent Platform for the Synthesis of Protein Degraders: Proof-of-Concept Application to BRD4-Degrading PROTACs” (Journal of Medicinal Chemistry, 2022).

Molecular target: BRD4 (Homo sapiens, UniProt O60885)
Experiment: BRD4 degradation by Western blot analysis in MDA-MB-231 cells
Details: 1 μM

Row | BRD4 degradation in time-course experiments (in words) (4 up to 24 h) | Densitometry (% of control), BRD4-immunoreactive band relative to DMSO vehicle (4 h) | Densitometry (% of control), BRD4-immunoreactive band relative to DMSO vehicle (8 h) | SMILES
1 | acted as a BRD4 degrader | 10,7 % of control | 8,5 % of control | Cc1ncsc1-c1ccc(CNC(=O)[C@@H]2C[C@@H](O)CN2C(=O)[C@@H](NC(=O)COCCOCCOCCNC(=O)C[C@@H]2N=C(c3ccc(Cl)cc3)c3c(sc(C)c3C)-n3c(C)nnc32)C(C)(C)C)cc1 [MZ1, reference compound]
2 | – | 51,7 % of control | 83,6 % of control | Cc1ncsc1-c1ccc(CNC(=O)[C@@H]2C[C@H](O)CN2C(=O)[C@@H](NC(=O)COCCOCCOCCNC(=O)C[C@@H]2N=C(c3ccc(Cl)cc3)c3c(sc(C)c3C)-n3c(C)nnc32)C(C)(C)C)cc1 (relative stereo) [cis-MZ1, reference compound]
